Consider one compound from publication PMC5360176 (Journal of clinical psychopharmacology, 2016).

For data set [1] the following is noted: aspirin at very high doses (3.5–5g /day); cited from earlier work.
The conditions of data set [2]: oxycodone 30 mg, Day 5 vs Day 4, p>0.05.

As to `CC(=O)Nc1nnc(S(N)(=O)=O)s1` [ACZ, Acetazolamide], the “Reduction of clearance of therapeutic doses of ACZ by aspirin” value in data set [1] was “two fold”. In addition, the “Effect of co-administered oxycodone on ACZ plasma PK parameters” value in data set [2] was “did not affect the plasma PK parameters”.
